For the test, the target named is T1, Adenosine deaminase (Homo sapiens, UniProt P00813).
T1 sequence (P00813 whole entry): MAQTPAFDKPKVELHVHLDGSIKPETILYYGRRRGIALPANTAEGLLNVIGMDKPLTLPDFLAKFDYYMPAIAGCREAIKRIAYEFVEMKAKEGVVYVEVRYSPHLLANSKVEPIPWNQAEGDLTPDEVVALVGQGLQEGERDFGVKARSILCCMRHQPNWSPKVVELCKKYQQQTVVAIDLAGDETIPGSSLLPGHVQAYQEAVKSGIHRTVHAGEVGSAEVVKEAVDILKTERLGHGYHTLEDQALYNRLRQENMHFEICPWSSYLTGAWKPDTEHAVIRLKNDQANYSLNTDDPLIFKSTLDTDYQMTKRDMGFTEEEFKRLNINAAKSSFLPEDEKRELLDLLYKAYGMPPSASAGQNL

As usually defined, the Ki is the dissociation constant of the complex between target and ligand, obtained from inhibition or displacement. Low readings indicate higher affinity, high ones lower affinity.

`NC(=O)c1cn([C@@H](CO)CCc2cccc3ccccc23)cn1` returned a Ki of 0.68 µM.
The same measure for `Cn1c(CCC(=O)Nc2ccc3ccn(CC[C@H](CO)n4cnc(C(N)=O)c4)c3c2)nc2ccccc21` [1-[(2R)-1-hydroxy-4-{6-[3-(1-methyl-1H-1,3-benzodiazol-2-yl)propanamido]-1H-indol-1-yl}butan-2-yl]-1H-imidazole-4-carboxamide]: 0.0077 µM; for `NC(N)=Nc1nc(-c2ccc(CNc3nc4ccccc4[nH]3)s2)cs1` [2-(4-{5-[(1H-1,3-benzodiazol-2-ylamino)methyl]thiophen-2-yl}-1,3-thiazol-2-yl)guanidine]: 1.2 µM.

Values taken from BindingDB's records for doi:10.1021/ja038606l (Fujisawa Pharmaceutical, 2004).
